Experimental data published in ChEMBL document CHEMBL1152804, “Relationship between brain tissue partitioning and microemulsion retention factors of CNS drugs” (J Med Chem, 2009).

How the values were obtained:
[1] = Dissociation constant, pKa by capillary electrophoresis; format: physicochemical
[2] = physchem; settings: buffer, pH 7.4

SMILES: Cc1nc2n(c(=O)c1CCN1CCC(c3noc4cc(F)ccc34)CC1)CCCC2 [RISPERIDONE]
- pKa [1]: 8.63

SMILES: Cc1cc2c(s1)Nc1ccccc1N=C2N1CCN(C)CC1 [OLANZAPINE]
- logD [2]: 1.9
